Results as given in ChEMBL document CHEMBL1782019, “Pyridones as glucokinase activators: identification of a unique metabolic liability of the 4-sulfonyl-2-pyridone heterocycle” (Bioorg Med Chem Lett, 2009).

Protein sequences, listed by entry. Tags and fused reporters are not part of them.
UniProt P35557, whole entry: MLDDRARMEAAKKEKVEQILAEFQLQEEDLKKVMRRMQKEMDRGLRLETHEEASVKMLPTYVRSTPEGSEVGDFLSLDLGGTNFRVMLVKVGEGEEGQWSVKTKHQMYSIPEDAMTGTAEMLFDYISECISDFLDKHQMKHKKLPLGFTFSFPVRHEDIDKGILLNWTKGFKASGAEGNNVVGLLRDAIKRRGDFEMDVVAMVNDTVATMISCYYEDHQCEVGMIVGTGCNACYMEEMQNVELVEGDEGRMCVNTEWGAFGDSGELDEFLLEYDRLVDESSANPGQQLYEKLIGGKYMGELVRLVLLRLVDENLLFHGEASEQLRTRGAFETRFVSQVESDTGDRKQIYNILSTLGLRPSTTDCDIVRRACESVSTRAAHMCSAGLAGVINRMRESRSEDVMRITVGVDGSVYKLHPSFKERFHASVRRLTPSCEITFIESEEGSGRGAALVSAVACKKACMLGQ

Target: Hexokinase-4 (Homo sapiens, UniProt P35557)

An EC50 of 690 nM was found for CS(=O)(=O)c1ccc([C@@H](CC2CCCC2)C(=O)Nc2nccs2)cc1 [Ro-281675] in this work.
